According to FireProtDB (doi:10.1006/jmbi.2001.5104):

B1: Alpha-1-antitrypsin, P01009 (parent)
chain: MPSSVSWGILLLAGLCCLVPVSLAEDPQGDAAQKTDTSHHDQDHPTFNKITPNLAEFAFSLYRQLAHQSNSTNIFFSPVSIATAFAMLSLGTKADTHDEILEGLNFNLTEIPEAQIHEGFQELLRTLNQPDSQLQLTTGNGLFLSEGLKLVDKFLEDVKKLYHSEAFTVNFGDTEEAKKQINDYVEKGTQGKIVDLVKELDRDTVFALVNYIFFKGKWERPFEVKDTEEEDFHVDQVTTVKVPMMKRLGMFNIQHCKKLSSWVLLMKYLGNATAIFFLPDEGKLQHLENELTHDIITKFLENEDRRSASLHLPKLSITGTYDLKSVLGQLGITKVFSNGADLSGVTEEAPLKLSKAVHKAVLTIDEKGTEAAGAMFLEAIPMSIPPEVKFNKPFVFLMIEQNTKSPLFMGKVVNPTQK

Variants of: B1
Details: Homo sapiens, pH 7.8, Tris 50 mM, NaCl 50 mM, reversible: yes, structure 1QLP, whole UniProt chain shown; for denaturant m value / denaturant midpoint (higher = more stable) / unfolding free energy: 25 °C, transition: 3; for Tm / change of melting temperature, mutant - wild type (higher = more stable): Thermal

Variant	denaturant m value (GdnSCN, Fluorescence) [kcal/mol/M]	denaturant midpoint (higher = more stable) (GdnSCN, Fluorescence) [M]	unfolding free energy (GdnSCN, Fluorescence) [kcal/mol]	denaturant m value (Urea, CD)	denaturant midpoint (higher = more stable) (Urea, CD)	unfolding free energy (Urea, CD)	denaturant m value (Urea, Fluorescence) [kcal/mol/M]	denaturant midpoint (higher = more stable) (Urea, Fluorescence) [M]	unfolding free energy (Urea, Fluorescence) [kcal/mol]	Tm (CD) [°C]	change of melting temperature, mutant - wild type (higher = more stable) (CD) [°C]
W218F	1.9	0.8	1.6	1.32 kcal/mol/M and 1.01 kcal/mol/M	2.95 M and 6.01 M	3.9 kcal/mol and 6.1 kcal/mol	1.5	2.6	4	59.1	-0.5
W262F	1.5	1.8	2.8	1.2 kcal/mol/M	5.8 M	6.95 kcal/mol	0.65	5.3	3.44	57.9	-1.7

Several values for one entry are separate records, joined by “and”; a condition that tells them apart may be missing. Equal entries are not always repeated.
